From patent US20040047835A1, “Combinatorial drug therapy using polymer drug conjugates” (priority 2002, published 2004)

Tests used:
mice = settings: single dose intravenous (iv) injection
[1] = conjugate versus free drug; cited from earlier work
[2] = in vivo; cited from earlier work

Row | Substance | LD50 (50% lethal dose) (mice) | solubility [1] | accumulation / distribution in the tumor [2]
1 | DTPA-paclitaxel | about 110 mg/kg body weight | – | –
2 | poly(L-glutamic acid)-paclitaxel [PG-TXL] | – | increased water solubility | increased accumulation in the tumor
